Results as given in patent EP4825398A1, “PHARMACEUTICAL COMPOSITION CONTAINING PRMT5 INHIBITOR AND CDK4/6 INHIBITOR” (dated 2026).

Tests used:
[1] = tested on: LU99 MTAP (-/-) deleted cells; test: Single-agent test, CTG cell viability, 144 h
[2] = tested on: LU99 MTAP (-/-) deleted cells; test: Combination test with Abemaciclib, CTG cell viability, 144 h; CI by Calcusyn; details: Abemaciclib 0.0 nM

| SMILES | IC20 [1] | IC50 [1] | Max Inh% [1] | Inhibition Rate (%) ([2]; Compound C 0.49 nM) | Inhibition Rate (%) ([2]; Compound C 1.95 nM) | Inhibition Rate (%) ([2]; Compound C 7.81 nM) | Inhibition Rate (%) ([2]; Compound C 31.3 nM) | Inhibition Rate (%) ([2]; Compound C 125 nM) | Inhibition Rate (%) ([2]; Compound C 500 nM) |
| --- | --- | --- | --- | --- | --- | --- | --- | --- | --- |
| C[C@H](c1ccc(C(F)(F)F)cn1)N(C(=O)c1cc2c(cc1F)nc(N)c1cncn12)C1CC1 | 3.64 nM | 13.4 nM | 82.4% | 3.6% | 5.6% | 25.7% | 55.3% | 73.4% | 79.2% |
| CN(C(=O)c1ccc2nc(N)c3cncn3c2c1)[C@@H]1COc2cc(C(F)(F)F)ccc21 | 3.41 nM | 15.1 nM | 83.2% |  |  |  |  |  |  |
